Data on 110 compounds can be found in PubChem BioAssay AID720508 (The Scripps Research Institute Molecular Screening Center, 2013).

Amino acid sequences for entries named in this document (tags omitted).
UniProt P02675, whole entry, looked up: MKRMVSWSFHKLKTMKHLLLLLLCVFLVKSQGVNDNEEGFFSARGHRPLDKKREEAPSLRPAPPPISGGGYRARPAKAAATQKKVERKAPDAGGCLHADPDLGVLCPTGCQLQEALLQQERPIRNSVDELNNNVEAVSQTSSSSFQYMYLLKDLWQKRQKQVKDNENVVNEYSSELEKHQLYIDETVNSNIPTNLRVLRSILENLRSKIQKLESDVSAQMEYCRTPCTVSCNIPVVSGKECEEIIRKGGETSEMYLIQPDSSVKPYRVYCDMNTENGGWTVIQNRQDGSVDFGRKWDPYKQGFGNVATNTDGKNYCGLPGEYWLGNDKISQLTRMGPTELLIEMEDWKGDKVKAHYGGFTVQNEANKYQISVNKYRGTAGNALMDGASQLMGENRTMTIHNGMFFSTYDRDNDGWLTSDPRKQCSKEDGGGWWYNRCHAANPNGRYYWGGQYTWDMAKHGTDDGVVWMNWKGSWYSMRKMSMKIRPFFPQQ

For orientation: inhibition means the relative decrease from the control value, in per cent.

Only a part is listed here, and it is no random draw. The source made the active and inactive calls.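 The calls were made as follows: active = inhibition above the mean of compounds falling within the control limits plus 3 SD of them (cut at about 14% in these data); inactive = the rest.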

The assay deals with Fibrinogen beta chain (Homo sapiens) (UniProt P02675). Briefly: inhibitors of Tn7 peptide binding to fibrin DD(E), primary screen, biochemical, fluorescence polarization, human fibrin, Tn7 probe (AID 720508).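 Also: 0% = plate median of compound wells and 100% = 10 µM Aha-Tn7 peptide.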 To be noted: FP displacement of FITC-Tn7 peptide from fibrin DD(E); at 8.3 µM; hits give high values; 0% = median of compound wells per plate.
For the compound `O=C(NCC1(N2CCOCC2)CCCCC1)c1cc(Br)ccc1Cl`, the inhibition is inactive: 2.06%. On to `COc1cc(C(=O)NCC2(N3CCOCC3)CCCCC2)cc(OC)c1C`, for which the inhibition is inactive: -2.08%.

`CCCCn1nnnc1C(c1ccccc1)N1CCC(n2c(=O)[nH]c3ccccc32)CC1` (stereo not given): the inhibition was inactive: 6.27%.

`O=c1[nH]c2ccccc2n1C1CCN(C(c2ccnc3ccccc23)c2nnnn2C2CCCC2)CC1` (stereo not given): the inhibition is inactive: -8.22%. In the case of `COc1ccc(C(=O)NCC2(N3CCOCC3)CCCCC2)cc1OC`, the inhibition was inactive: 0.82%. For the compound `NC(=O)C1(Nc2ccccc2)CCN(Cc2ccccc2)CC1`, the inhibition is inactive: -0.51%.

Take `O=c1[nH]c2ccccc2n1C1CCN(C(c2cccs2)c2nnnn2C2CCCCC2)CC1` (stereo not given): the inhibition was inactive: 1.23%.

In the case of `N/C(=N\O)c1c(N)no[n+]1[O-]`, the inhibition is inactive: -0.78%.

Take `COc1cccc(C(c2nnnn2C(C)(C)C)N2CCC(n3c(=O)[nH]c4ccccc43)CC2)c1OC` (stereo not given): the inhibition was inactive: 4.42%.

`CCOC(=O)N1CCC(Nc2ccc(C)cc2)CC1`: the inhibition was inactive: -1.18%. Consider `CCCCn1nnnc1C(c1cccc(OC)c1OC)N1CCC(n2c(=O)[nH]c3ccccc32)CC1` (stereo not given), for which the inhibition was inactive: -7.8%. For the compound `O=c1[nH]c2ccccc2n1C1CCN(C(c2cccs2)c2nnnn2C2CCCC2)CC1` (stereo not given), the inhibition was inactive: -5.38%. As for `O=C(OC1CN2CCC1CC2)C1c2ccccc2C=Cc2ccccc21` (stereo not given), the inhibition is inactive: 7.12%. For the compound `CC(C)(C)OC(=O)N1CCC(N(C(=O)c2ccccc2)c2ccc(Cl)cc2)CC1`, the inhibition was inactive: -7.55%.

In the case of `N#Cc1ccc(C(=O)NCC2(N3CCCCC3)CCCCC2)cc1`, the inhibition was inactive: -0.09%.

`O=c1[nH]c2ccccc2n1C1CCN(C(c2ccccc2)c2nnnn2C2CCCC2)CC1` (stereo not given): the inhibition is inactive: 2.34%.

`CCCN1CCC(Nc2cc(OC)cc(OC)c2)CC1`: the inhibition was inactive: 7.24%. Turning to `Cc1cc(N(CCCl)CCCl)ccc1C=O`, the inhibition was inactive: 5.89%. With `c1ccc(CN2CCC(Nc3ccccc3)CC2)cc1`, the inhibition was inactive: 1.31%. In the case of `C/C(N)=N\P(=O)(Oc1ccccc1)Oc1ccccc1`, the inhibition was inactive: -2.79%. As for `CN(C)C1(CNC(=O)c2cccc(C#N)c2)CCCCC1`, the figure is inactive: 3.8%; as for `CC(C)(C)n1nnnc1C(c1cccc2ccccc12)N1CCC(n2c(=O)[nH]c3ccccc32)CC1` (stereo not given), inactive: 1.93%. Turning to `O=c1[nH]c2ccccc2n1C1CCN(C(c2ccnc3ccccc23)c2nnnn2C2CCCCC2)CC1` (stereo not given), the inhibition was inactive: -6.58%.

As for `COc1cc(OC)cc(C(=O)NCC2(N3CCCCC3)CCCCC2)c1`, the inhibition is inactive: 1.56%. Regarding `CCC(c1nnnn1C1CCCCC1)N1CCC(n2c(=O)[nH]c3ccccc32)CC1` (stereo not given), the inhibition was inactive: -4.34%.

`CC(=O)N(c1ccccc1)C1CCNCC1`: the inhibition is inactive: 3.69%. The figure for `COc1cccc(C(c2nnnn2C2CCCCC2)N2CCC(n3c(=O)[nH]c4ccccc43)CC2)c1OC` (stereo not given) is inactive: 0.61%; for `Cc1ccc(NC2(C#N)CCN(Cc3ccccc3)CC2)cc1` it is inactive: 1.75%. With `Fc1ccccc1NC1CCN(Cc2ccccc2)CC1`, the inhibition was inactive: -2.31%. For the compound `Cc1ccc(C(=O)NCC2(N3CCCCC3)CCCCC2)o1`, the inhibition was inactive: 7.32%. Turning to `CC(C)(C)n1nnnc1C(c1ccnc2ccccc12)N1CCC(n2c(=O)[nH]c3ccccc32)CC1` (stereo not given), the inhibition was inactive: -2.82%. As for `COc1ccc(C(c2nnnn2C2CCCCC2)N2CCC(n3c(=O)[nH]c4ccccc43)CC2)cc1` (stereo not given), the inhibition is inactive: 1.72%.

Consider `CCN1CCC(Nc2cccc(F)c2)CC1`, for which the inhibition is inactive: -10.3%. For `Cc1ccccc1NC1(C#N)CCN(Cc2ccccc2)CC1`, the inhibition is inactive: -1.71%. For the compound `Cn1c(=O)[nH]cc(N(CCCl)CCCl)c1=O`, the inhibition is inactive: -3.73%.

Take `CN(C)c1ccc(C(=O)NCC2(N3CCCCC3)CCCCC2)cc1`: the inhibition is inactive: 6.27%. Regarding `O=C(NCC1(N2CCCCC2)CCCCC1)c1ccco1`, the inhibition is inactive: 0.99%.

With `CN1CCC(Nc2ccc(F)c(Cl)c2)CC1`, the inhibition is inactive: -6.67%.

For `CCOc1ncccc1C(=O)NCC1(N2CCOCC2)CCCCC1`, the inhibition is inactive: 6.48%. As for `CCCOc1ccc(C(=O)NCC2(N(C)C)CCCCC2)cc1`, the figure is inactive: 2.62%. Consider `O=c1[nH]c2ccccc2n1C1CCN(C(c2cc3ccccc3o2)c2nnnn2C2CCCC2)CC1` (stereo not given), for which the inhibition is inactive: 3.73%. As to `NN(c1ccccc1)C1CCN(CCc2ccccc2)CC1`, the inhibition was inactive: -0.88%. As for `O=C(O)C1(Nc2ccccc2)CCN(Cc2ccccc2)CC1`, the figure is inactive: -0.22%; as for `CC(C)(C)OC(=O)N1CCC(Nc2ccccc2)CC1`, inactive: 2.06%. On to `CCC(CO)(C(=O)OC1CN2CCC1CC2)c1ccccc1` (stereo not given), for which the inhibition is inactive: -4.13%.

Regarding `COc1cccc(C(=O)N(c2cc(C)cc(C)c2)C2CCN(C(=O)OC(C)(C)C)CC2)c1`, the inhibition is inactive: -0.06%.

Consider `COc1cc(OC)cc(C(=O)NCC2(N3CCOCC3)CCCCC2)c1`, for which the inhibition was inactive: -7.37%. Take `COc1cccc(C(c2nnnn2C2CCCC2)N2CCC(n3c(=O)[nH]c4ccccc43)CC2)c1OC` (stereo not given): the inhibition is inactive: 1.1%. Turning to `CN1CCC(Nc2ccc(Cl)cc2)CC1`, the inhibition was inactive: 0.82%. As to `CCCCn1nnnc1C(c1cccs1)N1CCC(n2c(=O)[nH]c3ccccc32)CC1` (stereo not given), the inhibition is inactive: 4.48%. Regarding `CCCCn1nnnc1C(CC)N1CCC(n2c(=O)[nH]c3ccccc32)CC1` (stereo not given), the inhibition is inactive: 3.01%. In the case of `O=C(NCC1(N2CCCCC2)CCCCC1)c1cccs1`, the inhibition was inactive: 0.46%.

`O=C(NCC1(N2CCCCC2)CCCCC1)c1ccc(=O)[nH]c1`: the inhibition is inactive: 0.27%. As for `CCC(c1nnnn1C1CCCC1)N1CCC(n2c(=O)[nH]c3ccccc32)CC1` (stereo not given), the inhibition is inactive: 0.6%. Regarding `COc1ccc(C(=O)NCC2(N3CCCCC3)CCCCC2)c(OC)c1OC`, the inhibition was inactive: -2.95%. As for `CC(C)(C)OC(=O)N1CCC(N(C(=O)c2ccccc2)c2ccc(F)cc2)CC1`, the figure is inactive: 2.5%. As for `COc1ccc(C(=O)NCC2(N3CCCCC3)CCCCC2)cc1`, the figure is inactive: -2.83%. Turning to `Cc1cccc(NC2(C#N)CCN(Cc3ccccc3)CC2)c1`, the inhibition was inactive: -6.02%. The figure for `CSc1ccccc1C(=O)NCC1(N2CCCCC2)CCCCC1` is inactive: 2.21%; for `O=C(NCC1(N2CCOCC2)CCCCC1)c1cc2ccccc2o1` it is inactive: -3.51%; for `Cc1cc(C)cc(N(C(=O)c2ccccc2)C2CCN(C(=O)OC(C)(C)C)CC2)c1` it is inactive: -3.37%. For the compound `O=c1[nH]c2ccccc2n1C1CCN(C(c2ccccc2OC(F)(F)F)c2nnnn2C2CCCCC2)CC1` (stereo not given), the inhibition was inactive: -7.66%. Consider `O=C(NCC1(N2CCCCC2)CCCCC1)c1ccc(Cl)nc1`, for which the inhibition is inactive: -1.05%.

With `CCCCn1nnnc1C(c1ccc(OC)cc1)N1CCC(n2c(=O)[nH]c3ccccc32)CC1` (stereo not given), the inhibition was inactive: -1.22%.

With `CCOC(=O)N1CCC(Nc2ccc(OC)cc2)CC1`, the inhibition was inactive: -1.92%. The figure for `COc1ccc(Cl)cc1C(=O)NCC1(N2CCOCC2)CCCCC1` is inactive: -5.43%; for `O=c1[nH]c2ccccc2n1C1CCN(C(c2cc3ccccc3o2)c2nnnn2C2CCCCC2)CC1` (stereo not given) it is inactive: 5.93%. As to `O=C(OC1CN2CCC1CC2)C1c2ccccc2Oc2ccccc21` (stereo not given), the inhibition is inactive: -2.48%. On to `O=C(NCC1(N2CCCCC2)CCCCC1)c1ccc(Cl)s1`, for which the inhibition was inactive: -2.41%. Consider `N#CC1(Nc2ccccc2)CCN(Cc2ccccc2)CC1`, for which the inhibition was inactive: 10%. As for `CCOc1ccc(C)cc1CN(CCCl)CCCl`, the inhibition is inactive: -7.44%.

Take `O=C1CCN(Cc2ccccc2)CC1`: the inhibition is inactive: 5.68%.

As to `CC(C)(C)n1nnnc1C(c1ccccc1)N1CCC(n2c(=O)[nH]c3ccccc32)CC1` (stereo not given), the inhibition is inactive: -9.71%. With `CCOC(=O)N1CCC(Nc2ccc(F)cc2)CC1`, the inhibition is inactive: 0.76%.

For `COc1ccc(NC2CCN(CCc3ccccc3)CC2)c(OC)c1`, the inhibition is inactive: 0.27%. As for `O=C(NCC1(N2CCCCC2)CCCCC1)c1ccc(F)cc1`, the inhibition was inactive: -7.44%.

As for `CCCCOc1ccc(C(=O)NCC2(N3CCOCC3)CCCCC2)cc1`, the inhibition was inactive: -0.77%. Turning to `CCCCn1nnnc1C(c1cc2ccccc2o1)N1CCC(n2c(=O)[nH]c3ccccc32)CC1` (stereo not given), the inhibition is inactive: 0.27%.

`O=P1(N(CCCl)CCCl)SCCCS1`: the inhibition was inactive: -1.77%.

For `O=c1[nH]c2ccccc2n1C1CCN(C(c2ccccc2)c2nnnn2C2CCCCC2)CC1` (stereo not given), the inhibition is inactive: 4.25%.

As for `O=c1[nH]c2ccccc2n1C1CCN(C(c2cccc3ccccc23)c2nnnn2C2CCCC2)CC1` (stereo not given), the inhibition is inactive: -3.82%. Consider `COc1cc(C(=O)NCC2(N(C)C)CCCCC2)ccc1OC(F)F`, for which the inhibition was inactive: 2.03%. For the compound `CCOC(=O)N1CCC(Nc2cccc(C)c2)CC1`, the inhibition was inactive: 0.33%. With `O=C(NCC1(N2CCCCC2)CCCCC1)c1ccc(OC(F)F)cc1`, the inhibition was inactive: -0.41%. Take `CC(C)(C)n1nnnc1C(c1ccccc1OC(F)(F)F)N1CCC(n2c(=O)[nH]c3ccccc32)CC1` (stereo not given): the inhibition is inactive: 6.91%. For the compound `O=C(NCC1(N2CCCCC2)CCCCC1)c1cccc([N+](=O)[O-])c1`, the inhibition was inactive: -3.9%. The figure for `CSc1ccc(C(=O)NCC2(N3CCOCC3)CCCCC2)cc1` is inactive: -3.7%; for `N#CC1(Nc2ccccc2)CCN(CCc2ccccc2)CC1` it is inactive: 3.32%; for `O=c1[nH]c2ccccc2n1C1CCN(C(c2ccccc2OC(F)(F)F)c2nnnn2C2CCCC2)CC1` (stereo not given) it is inactive: 2.58%. Turning to `CCN1CCC(Nc2ccc(Cl)cc2)CC1`, the inhibition was inactive: 4.95%. For the compound `O=C(NCC1(N2CCCCC2)CCCCC1)c1cccc(C(F)(F)F)c1`, the inhibition was inactive: 5.65%. Consider `CCCCn1nnnc1C(c1cccc2ccccc12)N1CCC(n2c(=O)[nH]c3ccccc32)CC1` (stereo not given), for which the inhibition was inactive: 2.67%. On to `COc1ccc(NC2CCN(C(=O)OC(C)(C)C)CC2)cc1`, for which the inhibition is inactive: 0.87%. As for `CC(C)c1ccc(C(=O)NCC2(N3CCOCC3)CCCCC2)cc1`, the figure is inactive: -3.24%; as for `CN1CCN(CCOC(=O)C(O)(c2ccccc2)c2ccccc2)CC1`, inactive: -3.23%. For the compound `O=C(NCC1(N2CCOCC2)CCCCC1)c1cc(=O)[nH]c2ccccc12`, the inhibition was inactive: -0.3%. Regarding `COc1cc(C(=O)NCC2(N3CCCCC3)CCCCC2)ccc1OC(F)F`, the inhibition is inactive: 0.88%.

For `CN(C)c1cccc(C(=O)NCC2(N3CCCCC3)CCCCC2)c1`, the inhibition is inactive: 4.3%. Turning to `COC(=O)C1(Nc2ccccc2)CCN(Cc2ccccc2)CC1`, the inhibition is inactive: 1.9%. `COc1ccc(CN(CCCl)CCCl)cc1Cl`: the inhibition was inactive: -3.07%.

As for `CC(C)c1ccc(NC2CCN(C(=O)OC(C)(C)C)CC2)cc1`, the inhibition is inactive: 3.06%. Take `CCCCn1nnnc1C(c1ccnc2ccccc12)N1CCC(n2c(=O)[nH]c3ccccc32)CC1` (stereo not given): the inhibition is inactive: 4.16%. Take `O=C(NCC1(N2CCOCC2)CCCCC1)c1cc(F)c(F)cc1Cl`: the inhibition is inactive: -5.24%. The figure for `CCC(c1nnnn1C(C)(C)C)N1CCC(n2c(=O)[nH]c3ccccc32)CC1` (stereo not given) is inactive: 2.05%; for `COc1cc(OC)c(C(=O)NCC2(N(C)C)CCCCC2)cc1OC` it is inactive: 0.72%.

Regarding `O=C(NCC1(N2CCCCC2)CCCCC1)c1cncc(Br)c1`, the inhibition is inactive: 3.08%. For the compound `CN1CCC(Nc2cccc(F)c2)CC1`, the inhibition is inactive: 1.05%. Turning to `CCCOc1ccc(C(=O)NCC2(N(C)C)CCCCC2)cc1OC`, the inhibition was inactive: 1.46%.

As for `Cc1ccc(C(=O)NCC2(N(C)C)CCCCC2)o1`, the inhibition is inactive: -2.37%. Consider `COc1ccc(C(c2nnnn2C2CCCC2)N2CCC(n3c(=O)[nH]c4ccccc43)CC2)cc1` (stereo not given), for which the inhibition is inactive: -10.4%.
